Results reported in publication PMC8125063 (International Journal of Molecular Sciences, 2021).

Tests used:
[1] = target: the molecule itself; test: native gel or EMSA; Native 9% PAGE; 200 mM Glycine-NaOH pH 9.0, 1 mM MgCl2, with or without 100 µM CoCl2 and/or 10 µM AMP in gel and running buffer; 3 h at 254 V
[2] = target: the molecule itself; test: SEC; HiLoad 16/600 Superdex 200 pg; 50 mM HEPES-NaOH pH 7.5, 150 mM KCl, 1 mM MgCl2, with or without 100 µM CoCl2 and/or 10 µM AMP; 0.5 mg protein loaded, 1 mL/min

B1: wild-type human Fructose 1,6-bisphosphatase 2 (Fbp2) (enzyme, UniProt O00757 1-339, looked up)
chain: MTDRSPFETDMLTLTRYVMEKGRQAKGTGELTQLLNSMLTAIKAISSAVRKAGLAHLYGIAGSVNVTGDEVKKLDVLSNSLVINMVQSSYSTCVLVSEENKDAIITAKEKRGKYVVCFDPLDGSSNIDCLASIGTIFAIYRKTSEDEPSEKDALQCGRNIVAAGYALYGSATLVALSTGQGVDLFMLDPALGEFVLVEKDVKIKKKGKIYSLNEGYAKYFDAATTEYVQKKKFPEDGSAPYGARYVGSMVADVHRTLVYGGIFLYPANQKSPKGKLRLLYECNPVAYIIEQAGGLATTGTQPVLDVKPEAIHQRVPLILGSPEDVQEYLTCVQKNQAGS
notes: Fructose 1,6-bisphosphatase 2 (muscle Fbp), human, wild type; Mainly a tetramer in SEC and native PAGE; a small amount of dimers is seen in native PAGE without ligands; also called muscle Fbp; source: expressed and purified as described in [8] with minor modifications (cellulose phosphate column)
[1]
  stoichiometry N: 2
[2]
  stoichiometry N: 4
